The entries are a selection whose mix differs from that of the whole data set. The source made the active and inactive calls.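 How the source made its calls: active means fluorescence-ratio B-score plate-corrected deviation score at least 3 library SD below zero, with starting fluorescence score within 5 deviations; inactive means the rest.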

Chains of the proteins cited; added tags and fusions are not shown.
UniProt Q8BHY3, whole entry: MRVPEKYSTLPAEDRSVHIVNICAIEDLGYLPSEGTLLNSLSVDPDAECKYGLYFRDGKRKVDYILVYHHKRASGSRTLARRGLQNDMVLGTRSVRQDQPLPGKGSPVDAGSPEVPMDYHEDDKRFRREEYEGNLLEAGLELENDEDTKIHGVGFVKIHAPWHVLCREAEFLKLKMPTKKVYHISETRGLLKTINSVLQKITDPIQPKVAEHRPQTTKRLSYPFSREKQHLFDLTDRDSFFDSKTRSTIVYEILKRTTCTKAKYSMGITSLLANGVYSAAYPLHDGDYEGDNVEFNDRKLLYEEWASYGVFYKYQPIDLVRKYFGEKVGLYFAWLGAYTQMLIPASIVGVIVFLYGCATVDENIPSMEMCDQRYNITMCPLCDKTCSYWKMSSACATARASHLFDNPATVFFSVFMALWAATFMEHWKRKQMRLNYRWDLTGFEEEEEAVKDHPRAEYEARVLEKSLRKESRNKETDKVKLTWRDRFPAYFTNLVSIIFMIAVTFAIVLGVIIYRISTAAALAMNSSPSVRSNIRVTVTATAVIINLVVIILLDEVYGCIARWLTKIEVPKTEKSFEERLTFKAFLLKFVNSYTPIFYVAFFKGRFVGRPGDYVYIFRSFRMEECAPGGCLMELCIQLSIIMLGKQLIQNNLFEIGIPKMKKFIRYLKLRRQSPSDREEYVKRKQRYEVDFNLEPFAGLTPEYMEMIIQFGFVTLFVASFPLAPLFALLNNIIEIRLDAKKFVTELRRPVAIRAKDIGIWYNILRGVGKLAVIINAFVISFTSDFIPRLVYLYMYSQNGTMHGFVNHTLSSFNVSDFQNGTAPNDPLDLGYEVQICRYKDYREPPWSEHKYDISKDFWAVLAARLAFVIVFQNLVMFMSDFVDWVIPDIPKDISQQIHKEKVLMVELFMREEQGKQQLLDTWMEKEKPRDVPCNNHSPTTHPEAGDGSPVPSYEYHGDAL

Here are results for 109 compounds from PubChem BioAssay AID623877 (Johns Hopkins Ion Channel Center, 2012).

The experiment has as its target Anoctamin-1 (Mus musculus) (UniProt Q8BHY3). In words: TMEM16A chloride channel activators or potentiators, primary screen, cell-based, HTS (AID 623877).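 On B-score: channel opened by trigger with iodide after compound preincubation; score built on the fluorescence ratio of max minus min over baseline; more negative score means more quench and so TMEM16A activation or potentiation.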 Conditions: HEK293 TMEM16A/YFP-H148Q/I152L, iodide quench fluorescence, at 10 µM; active compounds read low.
In the case of `O=C(Nc1ccncc1[N+](=O)[O-])c1ccc([N+](=O)[O-])cc1[N+](=O)[O-]`, the result was inactive. Turning to `Cc1cccc(C)c1OP(C)(=O)Nc1ccc(SC(F)(F)F)cc1` (centres undefined), the result was inactive. The same measure, in the same setting: under `CP(=O)(Nc1ccc(SC(F)(F)F)cc1)Oc1ccc(Cl)cc1` (centres undefined) stands “inactive”; under `COP1(=S)c2c(C)nn(CCC#N)c2N=C(c2ccc(F)cc2)N1C` (centres undefined), “inactive”. On the same count and under the same terms, with `CP(=O)(Oc1ccccc1)OC(c1ccccc1)C(F)(F)F` (centres undefined) the entry was “inactive”; with `CP(=O)(Nc1ccccn1)Oc1ccc(Cl)cc1` (centres undefined), “inactive”. In the case of `CCC(C)N(CC(C)C)C(=S)SC(NC(C)=O)C(Cl)(Cl)Cl` (centres undefined), the result was inactive. For `CCOC(=O)c1ccc(NP(C)(=O)Oc2ccc(OC)cc2)cc1` (centres undefined), the outcome was inactive. On to `CCOC(=O)c1ccc(NC(=O)C(C)(CCl)SC)cc1` (centres undefined), for which the result was inactive. With `O=[N+]([O-])c1cc([N+](=O)[O-])c(O)c([N+](=O)[O-])c1.c1ccc(Oc2ccncc2)cc1`, the result was inactive. Take `CCOP(C)(=S)SCC(=O)NC(C)C(=O)O` (centres undefined): the result was inactive.

With `O=C(OC1CN2CCC1CC2)c1cccc([N+](=O)[O-])c1` (centres undefined), the outcome was inactive.

Take `COc1ccc2nc(NP(=O)(c3ccccc3)c3ccccc3)sc2c1`: the result was inactive. For the compound `COc1cc(I)ccc1[As](=O)(O)O`, the outcome was inactive. Still for that read-out and setting: under `O=P1(N(CCCl)CCCl)Nc2ccccc2N1` stands “inactive”.

Take `O=P1(N(CCCl)CCCl)OCCCN1CCCl` (centres undefined): the result was inactive.

`O=C(OC1CN2CCC1CC2)C12CC3CC(CC(C3)C1)C2` (centres undefined): the outcome was inactive.

As for `CCN(CC)CCCOC(=O)C(O)(c1ccccc1)c1ccccc1`, the result was inactive. Turning to `Cc1cc(=O)[nH]c(N[N+](=O)[O-])n1`, the result was inactive. Still for that read-out and setting: with `Cc1c2c(nc3ccccc13)SC(C(Cl)Cl)C2` (centres undefined) the entry was “inactive”. Consider `COc1ccc(N/C(=N/P(=O)(N2CCOCC2)N2CCOCC2)N2CCOCC2)cc1`, for which the result was inactive.

For the compound `O=[N+]([O-])c1cc(Oc2ccc([N+](=O)[O-])cc2C(F)(F)F)cc([N+](=O)[O-])c1`, the outcome was inactive. Same read-out and setting: under `Cc1ccc2nc3c(c(C)c2c1)CC(C(Cl)Cl)S3` (centres undefined) stands “inactive”; under `O=[N+]([O-])c1ccc2c(c1)C=Nc1ccccc1O2`, “inactive”. As to `CC(C)(C)c1ccc(OP(C)(=O)Nc2ccc(SC(F)(F)F)cc2)cc1` (centres undefined), the outcome was inactive.

Regarding `Cc1ccc(OP(=O)(Nc2ccc([N+](=O)[O-])cn2)Oc2ccc(C)cc2)cc1`, the result was inactive. For `Cc1cccc(C)c1OP(C)(N)=O` (centres undefined), the result was inactive. On the same count and under the same terms, with `O=[As](O)(c1ccc(O)cc1)c1ccccc1O` the entry was “inactive”; with `C[As](=O)(O)c1cccc(C(=O)O)c1`, “inactive”. Regarding `COc1cc(C(=O)NCC2(N3CCOCC3)CCCCC2)ccc1OCC(C)C`, the outcome was inactive. With `O=[N+]([O-])c1ccc(-c2cc([N+](=O)[O-])c(O)c([N+](=O)[O-])c2)cc1`, the outcome was inactive. `O=[N+]([O-])c1cc([N+](=O)[O-])c(Nc2cccnc2)c([N+](=O)[O-])c1`: the result was inactive. For `Cc1cc(C)cc(OP(C)(N)=O)c1` (centres undefined), the result was inactive. Still for that read-out and setting: with `O=C(OC1CN2CCC1CC2)c1cccc2[nH]cnc12` (centres undefined) the entry was “inactive”; with `CCN(CC)C(=S)SC(NC=O)C(Cl)(Cl)Cl` (centres undefined), “inactive”. As for `COc1ccccc1OP(C)(=O)Nc1cc(Cl)ccc1C` (centres undefined), the outcome was inactive. For the compound `CC(C)NC(=O)NP(=O)(Oc1ccccc1)Oc1ccccc1`, the result was inactive. Same read-out and setting: under `O=[N+]([O-])c1cc([N+](=O)[O-])c(-c2ccn[nH]2)s1` stands “inactive”; under `COc1ccc(OP(C)(=O)Nc2cccc(F)c2)cc1` (centres undefined), “inactive”. The same measure, in the same setting: with `COc1ccccc1OP(C)(=O)Nc1ccc(C)cc1` (centres undefined) the entry was “inactive”; with `CC(C)c1ccc(OP(=O)(Nc2ccccn2)Oc2ccccc2F)cc1` (centres undefined), “inactive”; with `Cc1ccc(NP(C)(=O)Oc2ccccc2)c(C)c1` (centres undefined), “inactive”. On to `COC(=O)C1(C)COP(=O)(N2CCCCCC2)OC1` (centres undefined), for which the outcome was inactive. On to `CCOC(=O)c1ccc(NP(C)(=O)Oc2ccccc2)cc1` (centres undefined), for which the outcome was inactive. Turning to `ClCCSc1nnc(-c2cccnc2)o1`, the outcome was inactive. For the compound `Nc1ccccc1[As](=O)(O)c1ccccc1`, the result was inactive. On the same count and under the same terms, with `O=C(O)COc1ccc([As](=O)(O)O)cc1[N+](=O)[O-]` the entry was “inactive”. On the same count and under the same terms, under `CS(=O)(=O)c1cc([N+](=O)[O-])c2no[n+]([O-])c2c1` stands “inactive”; under `CCOP1(=S)c2c(C)nn(CCC#N)c2N=C(c2ccccc2F)N1C` (centres undefined), “inactive”; under `O=C(O)c1cccc(Nc2c([N+](=O)[O-])cc([N+](=O)[O-])cc2[N+](=O)[O-])c1`, “inactive”. For the compound `O=P(Nc1nccs1)(c1ccccc1)c1nc2ccccc2s1` (centres undefined), the outcome was inactive. The same measure, in the same setting: with `O=P(Nc1nccs1)(Oc1ccccc1)Oc1ccccc1` the entry was “inactive”; with `CN(C)C(=O)c1cc([N+](=O)[O-])cc2c1-c1c(cc([N+](=O)[O-])cc1[N+](=O)[O-])C2=O`, “inactive”; with `O=[N+]([O-])c1ccc2c(c1)nnn2O`, “inactive”. With `CN(C(=O)Cc1ccc(Cl)c(Cl)c1)[C@H]1CC[C@@]2(CCCO2)C[C@@H]1N1CCCC1`, the result was inactive. Regarding `CC1=NCCc2c1[nH]c1ccccc21.O=[N+]([O-])c1cc([N+](=O)[O-])c(O)c([N+](=O)[O-])c1`, the result was inactive.

With `N#CCCN(C(=O)COC(=O)C(O)(c1ccccc1)c1ccccc1)c1ccc(F)cc1`, the result was inactive. As to `CCOP1(=S)c2c(C)nn(CCC#N)c2N=C(c2ccc(F)cc2)N1C` (centres undefined), the outcome was inactive. Same read-out and setting: with `CN(C(=O)Cc1ccccc1)[C@@H]1CC[C@]2(CCCO2)C[C@H]1N1CCCC1` the entry was “inactive”; with `NC(=O)Nc1ccc([As](=O)(O)O)cc1`, “inactive”. For `CCOC(=O)c1ccc(NP(C)(=O)Oc2cc(C)cc(C)c2)cc1` (centres undefined), the outcome was inactive. On to `O=[As](O)(c1cccc(O)c1)c1cccc(O)c1`, for which the result was inactive. For `Cc1cccc(OCC(=O)OC2CN3CCC2CC3)c1` (centres undefined), the outcome was inactive. Regarding `Cc1cc(C)cc(OP(C)(=O)Nc2ccc(C)cc2C)c1` (centres undefined), the result was inactive. Still for that read-out and setting: with `COc1cc(C(=O)NCC2(N3CCOCC3)CCCCC2)cc(Cl)c1OC(C)C` the entry was “inactive”; with `O=[As](O)(O)c1cccnc1`, “inactive”; with `CS(=O)(=O)c1ccc(Cl)c(NC(=O)COC(=O)C(O)(c2ccccc2)c2ccccc2)c1`, “inactive”. Still for that read-out and setting: with `COc1ccccc1OP(C)(=O)Nc1cccc(Br)c1` (centres undefined) the entry was “inactive”; with `O=C(OC1CN2CCC1CC2)c1ccc(Cl)cc1` (centres undefined), “inactive”. Consider `CCOP(=O)(Nc1cccc2ccccc12)OCC`, for which the result was inactive. On to `CCCOP(=S)(Nc1nc(N)cc(=O)[nH]1)OCCC`, for which the result was inactive. As to `Cc1ccc(C)c(NP(C)(=O)Oc2ccccc2)c1` (centres undefined), the outcome was inactive. With `CP(=O)(Nc1cccc(Br)c1)Oc1ccccc1` (centres undefined), the B-score is active: -5.28. As for `Cc1cc(C)cc(OP(C)(=O)Nc2ccccn2)c1` (centres undefined), the outcome was inactive.

Turning to `Nc1cccc2c([As](=O)(O)O)cccc12`, the result was inactive.

For the compound `Cc1ccc(NCCc2c([N+](=O)[O-])cc([N+](=O)[O-])cc2[N+](=O)[O-])cc1`, the result was inactive. On to `Clc1n[nH]nc1-c1nn[nH][15n]1`, for which the result was inactive. With `CC(C)(C)C(=O)NC(Sc1ncccn1)C(Cl)(Cl)Cl` (centres undefined), the outcome was inactive. Same read-out and setting: under `CCOP(=O)(Nc1ccc(C)cn1)OCC` stands “inactive”; under `O=P1(Nc2ccccn2)COc2ccccc2OC1`, “inactive”. For the compound `CCC1=CC2Cc3nc4ccc(Cl)cc4c(N)c3C(C1)C2` (centres undefined), the result was inactive. As to `CCOP(=O)(NC(=NC(C)c1ccccc1)NC(C)c1ccccc1)OCC` (centres undefined), the result was inactive.

On to `O=[N+]([O-])c1cc([N+](=O)[O-])c(-n2nnc3ccccc32)c([N+](=O)[O-])c1`, for which the outcome was inactive. On the same count and under the same terms, with `Cc1nc2ccc3ccccc3c2s1.O=[N+]([O-])c1cc([N+](=O)[O-])c(O)c([N+](=O)[O-])c1` the entry was “inactive”. The same measure, in the same setting: with `CC1(CBr)Cn2c(nc3ccccc3c2=O)S1` (centres undefined) the entry was “inactive”. As for `CC(C)/C=N\N=C(\N)N[N+](=O)[O-]`, the outcome was inactive.

As to `CN(C(=O)Cc1ccc(Cl)c(Cl)c1)[C@@H]1CCCC[C@H]1N1CCCC1`, the result was inactive.

`COc1ccccc1CNC(=O)COC(=O)C(O)(c1ccccc1)c1ccccc1`: the outcome was inactive. As to `O=[N+]([O-])c1cc([N+](=O)[O-])c(-c2cnn(-c3ccccc3)c2)c([N+](=O)[O-])c1`, the outcome was inactive. With `O=C(/C=C/c1ccccc1)OC1CN2CCC1CC2` (centres undefined), the outcome was inactive. On to `CCCC1OP(=O)(Nc2ccccc2)OCC1CC` (centres undefined), for which the outcome was inactive. Consider `O=[N+]([O-])c1cc([N+](=O)[O-])c(Nc2nnnn2CCO)c([N+](=O)[O-])c1`, for which the result was inactive.

As for `CN(C)C1(CNC(=O)c2ccc(S(C)(=O)=O)cc2)CCCCC1`, the outcome was inactive. As for `CC1=C2N=C(C=C3N=C(C(C)=C4[N-][C@@](C)([C@@H]5N=C1[C@](C)(CCC(=O)NC[C@@H](C)OP(=O)([O-])O[C@H]1[C@@H](O)[C@@H](n6cnc7cc(C)c(C)cc76)O[C@@H]1CO)[C@H]5CC(N)=O)[C@@](C)(CC(N)=O)[C@@H]4CCC(N)=O)[C@@](C)(CC(N)=O)[C@@H]3CCC(N)=O)C(C)(C)[C@@H]2CCC(N)=O.[C-]#N.[Co+3]`, the outcome was inactive. `CCOC(=O)C(CC)C1=NC(C)(C)Cc2ccccc21.O=[N+]([O-])c1cc([N+](=O)[O-])c(O)c([N+](=O)[O-])c1` (centres undefined): the outcome was inactive. Same read-out and setting: under `COc1cc(C2NCCC3(OCCO3)C2(C)C)cc(OC)c1OC.O=[N+]([O-])c1cc([N+](=O)[O-])c(O)c([N+](=O)[O-])c1` (centres undefined) stands “inactive”; under `Cc1nn(-c2ccccc2)c2c1P(=O)(N1CCOCC1)N(C)C(c1ccccc1)=N2` (centres undefined), “inactive”; under `CC1CCC(C(C)C)C(OP(=O)(Nc2ccccn2)c2ccccc2)C1` (centres undefined), “inactive”. With `Cc1ccc(C(=O)OC2CN3CCC2CC3)cc1` (centres undefined), the result was inactive. Consider `O=P1(Nc2ccc(Br)cn2)COc2ccccc2OC1`, for which the result was inactive. Consider `NS(=O)(=O)c1cccc(NC(=O)COC(=O)C(O)(c2ccccc2)c2ccccc2)c1`, for which the result was inactive. On to `O=[As](O)(c1cccs1)c1cccs1`, for which the result was inactive.

In the case of `Cc1ccc(OCC(=O)OC2CN3CCC2CC3)cc1` (centres undefined), the result was inactive.

Regarding `Nc1cccc([As](=O)(O)c2ccccc2)c1`, the outcome was inactive. Regarding `CP(=O)(Nc1ccc(SC(F)(F)F)cc1)Oc1ccccc1` (centres undefined), the result was inactive. For the compound `CCCOc1ccc(NP(C)(=O)Oc2ccc(Cl)cc2)cc1` (centres undefined), the outcome was inactive.

Consider `O=P1(Nc2ncccn2)COc2ccccc2OC1`, for which the outcome was inactive. As for `COc1ccccc1OP(C)(=O)Nc1c(C)cccc1C` (centres undefined), the result was inactive. For the compound `CN1CCCCC1COC(=O)C1(O)c2ccccc2CCc2ccccc21` (centres undefined), the outcome was inactive.
